The numbers were not newly measured in article PMC6151961 (Journal of Enzyme Inhibition and Medicinal Chemistry, 2018), which cites them from elsewhere.

The target of this data set is CA IX (Homo sapiens, UniProt Q16790). Conditions: cited from earlier work.

`CC(=O)OC[C@H]1O[C@H](S(=O)(=O)NCCOS(N)(=O)=O)[C@@H](OC(C)=O)[C@H](OC(C)=O)[C@H]1OC(C)=O` [B0678]: the Ki is 215 nM.

With `CC(=O)OC[C@H]1O[C@H](S(=O)(=O)N2CCC(OS(N)(=O)=O)CC2)[C@@H](OC(C)=O)[C@H](OC(C)=O)[C@H]1OC(C)=O` [B0014], the Ki is 2 nM.

As usually defined, the Ki is the equilibrium dissociation constant of an inhibitor or competing ligand from its target.
